Experiments:
Experiment in all cases: GloSensor cAMP assay, PGE2 induced cAMP signaling (activation)
Type in all cases: cell-based
Details in all cases: mean ± S.E.M., n = 3
[1] = target: T1, EP2-D311A (Homo sapiens, UniProt P43116, D311A)
T1 construct: The full-length EP2 or EP4 was cloned into the pcDNA3.1 vector (Invitrogen), incorporating an N-terminal FLAG tag; expressed in transfected cells; host or cells: AD293
Experimental: (§1) The full-length EP2 or EP4 was cloned into the pcDNA3.1 vector (Invitrogen), incorporating an N-terminal FLAG tag. AD293 cells were seeded in six-well plates containing DMEM supplemented with 10% dialyzed FBS 1 day prior to transfection. Following overnight growth, cells were transfected with a 1:1 ratio of receptor construct and GloSensor22F cAMP biosensor (Promega) plasmids.
(§2) Twenty-four hours post-transfection, the cells were transferred to CO2-independent media containing 2% GloSensor cAMP Reagent (Promega) and distributed into 384-well assay plates at a density of 4000 cells per well in 10 μL. […] The plates were then incubated at 37 °C for an additional hour before luminescence measurements were taken using an EnVision plate reader.
(§3) Data analysis was performed using GraphPad Prism software v8.0.1. A nonlinear regression analysis, employing a sigmoidal dose–response model, was conducted to determine the Emax values and half-maximum inhibitory concentrations (IC50) for each compound tested.

Sequences of proteins named here, by UniProt entry; tags and fusion partners are left off.
UniProt P43116, whole entry D311A: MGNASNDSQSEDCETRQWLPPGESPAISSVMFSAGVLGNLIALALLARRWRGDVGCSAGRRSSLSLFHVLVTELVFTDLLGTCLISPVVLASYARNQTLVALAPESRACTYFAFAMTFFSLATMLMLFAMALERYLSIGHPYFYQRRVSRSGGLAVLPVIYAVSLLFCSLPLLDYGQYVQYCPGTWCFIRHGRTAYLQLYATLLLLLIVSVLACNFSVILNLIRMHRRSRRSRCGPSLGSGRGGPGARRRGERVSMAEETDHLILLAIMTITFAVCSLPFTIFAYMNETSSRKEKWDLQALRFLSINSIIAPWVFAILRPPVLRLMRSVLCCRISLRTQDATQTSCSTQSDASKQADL
UniProt P43116, whole entry F273A: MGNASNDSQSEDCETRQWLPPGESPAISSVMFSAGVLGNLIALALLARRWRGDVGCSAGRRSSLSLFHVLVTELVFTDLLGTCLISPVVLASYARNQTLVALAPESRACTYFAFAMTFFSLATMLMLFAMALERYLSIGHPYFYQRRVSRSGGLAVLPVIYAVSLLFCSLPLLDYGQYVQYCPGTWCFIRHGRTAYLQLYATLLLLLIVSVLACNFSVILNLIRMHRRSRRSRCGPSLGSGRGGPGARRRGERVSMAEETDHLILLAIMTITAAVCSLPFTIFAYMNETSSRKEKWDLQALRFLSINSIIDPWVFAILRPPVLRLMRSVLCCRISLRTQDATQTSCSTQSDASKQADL

[2] = target: T2, EP2-F273A (Homo sapiens, UniProt P43116, F273A)
T2 construct: The full-length EP2 or EP4 was cloned into the pcDNA3.1 vector (Invitrogen), incorporating an N-terminal FLAG tag; expressed in transfected cells; host or cells: AD293
Experimental: as §1, §2, §3

[3] = target: EP2 WT (Homo sapiens, UniProt P43116); parameters: The full-length EP2 or EP4 was cloned into the pcDNA3.1 vector (Invitrogen), incorporating an N-terminal FLAG tag; expressed in transfected cells; host or cells: AD293
Experimental: as §1, §2, §3

- EC50 [1]: 0.0148 µM
- EC50 [2]: 0.138 µM
- EC50 [3]: 0.000479 µM
SMILES: CCCCC[C@H](O)/C=C/[C@H]1[C@H](O)CC(=O)[C@@H]1C/C=C\CCCC(=O)O [PGE2, Prostaglandin E2]
